Measurements: PMC6713091, “Exploring new structural features of the 4-[(3-methyl-4-aryl-2,3-dihydro-1,3-thiazol-2-ylidene)amino]benzenesulphonamide scaffold for the inhibition of human carbonic anhydrases” (Journal of Enzyme Inhibition and Medicinal Chemistry, 2019)

The chains behind the UniProt entries cited, without tags or fusion partners. Residues count along the entry.
UniProt P00915, whole entry: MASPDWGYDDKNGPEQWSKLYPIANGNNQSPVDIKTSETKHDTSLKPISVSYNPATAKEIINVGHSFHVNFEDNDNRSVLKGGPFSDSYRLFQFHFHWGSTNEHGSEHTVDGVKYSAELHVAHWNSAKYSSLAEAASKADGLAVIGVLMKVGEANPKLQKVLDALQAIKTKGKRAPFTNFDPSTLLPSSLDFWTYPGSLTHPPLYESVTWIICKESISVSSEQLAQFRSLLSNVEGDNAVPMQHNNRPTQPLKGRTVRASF
UniProt O43570, 25-354 limits assumed: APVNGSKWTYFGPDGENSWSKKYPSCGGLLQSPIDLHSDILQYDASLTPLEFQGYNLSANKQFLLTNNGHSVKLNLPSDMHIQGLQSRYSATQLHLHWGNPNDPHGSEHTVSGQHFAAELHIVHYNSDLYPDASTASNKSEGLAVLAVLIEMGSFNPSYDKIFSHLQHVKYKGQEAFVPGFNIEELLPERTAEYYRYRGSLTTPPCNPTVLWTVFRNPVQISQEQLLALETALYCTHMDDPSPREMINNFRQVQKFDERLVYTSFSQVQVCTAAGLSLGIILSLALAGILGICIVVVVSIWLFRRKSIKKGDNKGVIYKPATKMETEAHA

Experiments:
hCA I = hCA I (Homo sapiens, UniProt P00915); experiment: Carbonic anhydrase inhibition assay, hCA I; details: read-out: Ki (nM) hCA I
hCA II = hCA II (Homo sapiens, UniProt P00918); experiment: Carbonic anhydrase inhibition assay, hCA II; details: read-out: Ki (nM) hCA II
hCA IX = hCA IX (Homo sapiens, UniProt Q16790); experiment: Carbonic anhydrase inhibition assay, hCA IX; details: read-out: Ki (nM) hCA IX
hCA XII = hCA XII (Homo sapiens, UniProt O43570); experiment: Carbonic anhydrase inhibition assay, hCA XII; details: read-out: Ki (nM) hCA XII

Ki (hCA I): 1650 nM
Ki (hCA II): 30.3 nM
Ki (hCA IX): 1870 nM
Ki (hCA XII): 36.9 nM
Compound: Cn1c(-c2cccs2)cs/c1=N\c1ccc(S(N)(=O)=O)cc1
